Assays:
Assay in all cases: Monolayer cell proliferation, crystal violet
Format in all cases: cell-based
[1] = system: Calu-6 cells; settings: Calu-6, Lung, monolayer culture
Protocol: (§1) Cell proliferation studies were conducted in serum-free medium as indicated. Cells were plated in 96-well tissue culture plates (Falcon #35-3075, Becton Dickinson, N.J.) at 2000 to 6000 cells per well, as appropriate for a cell line, and then grown overnight (15 to 18 hrs). For the cell proliferation studies done in serum containing medium, the cells were then treated with or without compounds and allowed to grow for 3 to 5 days. […] After plating cells in serum, the cells were grown overnight (15 to 20 hrs), then the cells were switched to serum-free medium and grown for 24 to 48 hrs (serum-starvation). […] Cell proliferation was quantified by crystal violet dye method as described previously (Sugarman et al., 1987). Briefly, the culture medium was decanted, the cells washed once with PBS, followed by addition of 50 μl/well 0.5% (w/v) crystal violet dye (Sigma-Aldrich, St Loius, Mo.) in methanol and incubation for 20 min. The plates were washed with water 3-times and then air-dried overnight. The cell-bound dye was eluted with 100 μl/well Sorenson's buffer (25 mM sodium citrate in 50% ethanol) for 15 min on a plate shaker. The plate was then read on a plate reader at 540 nm wavelength for absorbance, which was directly proportional to the amount of cells in the well.
(§2) Cell proliferation studies were conducted in either serum containing or in serum-free medium as indicated. Cells were plated in 96-well tissue culture plates (Falcon #35-3075, Becton Dickinson, N.J.) at 2000 to 6000 cells per well, as appropriate for a cell line, and then grown overnight (15 to 18 hrs). For the cell proliferation studies done in serum containing medium, the cells were then treated with or without compounds and allowed to grow for 3 to 5 days. For cell proliferation studies done in serum-free growth conditions. After plating cells in serum, the cells were grown overnight (15 to 20 hrs), then the cells were switched to serum-free medium and grown for 24 to 48 hrs (serum-starvation). […] Cell proliferation was quantified by crystal violet dye method as described previously (Sugarman et al., 1987). Briefly, the culture medium was decanted, the cells washed once with PBS, followed by addition of 50 μl/well 0.5% (w/v) crystal violet dye (Sigma-Aldrich, St Loius, Mo.) in methanol and incubation for 20 min. The plates were washed with water 3-times and then air-dried overnight. The cell-bound dye was eluted with 100 μl/well Sorenson's buffer (25 mM sodium citrate in 50% ethanol) for 15 min on a plate shaker. The plate was then read on a plate reader at 540 nm wavelength for absorbance, which was directly proportional to the amount of cells in the well.

[2] = system: H1975 cells; settings: H1975, Lung, monolayer culture
Protocol: as §1, §2

[3] = system: HCC4006 cells; settings: HCC4006, Lung, monolayer culture
Protocol: as §1, §2

[4] = system: T47D cells; settings: Breast, monolayer culture
Protocol: as §1, §2

[5] = system: H1437 cells; settings: H1437, Lung, monolayer culture
Protocol: as §1, §2

[6] = system: MCF-7 cells; settings: MCF-7, Breast, monolayer culture
Protocol: as §1, §2

[7] = system: BT-474 cells; settings: BT-474, Breast, monolayer culture
Protocol: as §1, §2

RB200h: heterodimer: full length HER 1 ECD linked to full length HER 3 ECD via Fc domain (HER1-621/Fc and HER3-621/Fc with His tag)
RB200 Efficacy (growth inhibition of cells) [1]: − (− = <10%)
RB200 Efficacy (growth inhibition of cells) [2]: + (+ = 10 to 20%)
RB200 Efficacy (growth inhibition of cells) [3]: − (− = <10%)
RB200 Efficacy (growth inhibition of cells) [4]: − (− = <10%)
RB200 Efficacy (growth inhibition of cells) [5]: +++ (+++ = 31 to 50% growth inhibition of cells by RB200)
RB200 Efficacy (growth inhibition of cells) [6]: − (− = <10%)
RB200 Efficacy (growth inhibition of cells) [7]: ++ (++ = 21 to 30%)
